Results reported in doi:10.1101/798769 (bioRxiv, 2019).

Biological target: T1, NANP 5.5-mer peptide, NP(NANP)5 (Plasmodium falciparum)
T1 chain: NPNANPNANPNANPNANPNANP
Assay: SPR

- Kd: < 0.1 nM
B1: mAb 317 (recombinant human IgG1, kappa) (antibody, V domains shown)
VH: QMQLVESGGGVVQPGRSLRLSCTASGFTFSTYAMHWVRQSPGQGLQWVAVISYHSTNKYYEDSVRGRFTISRDNSKNTLYLQMNSLRAEDTAVYYCARDGYSSSFFDFWGQGTLVTVSS
VL: DIQMTQSPSTLSASVGDRVAITCRASQSISRWLAWYQQQPGKAPKLLMSGASVLESGVPSRFSGSGSGTEFTLTISSLQPDDFATYYCQHYNSYFVTFGQGTKVEIK
